Data published in patent publication US20030176678A1 (YEDA RESEARCH AND DEVELOPMENT, published 2003).

Target: T1, flag-IR1B4 (IR1B4 protein with a flag tag, translated in vitro in rabbit reticulocyte lysate, [35S]methionine … (human, [35S]methionine label)
T1 construct: Made from the XhoI insert of pACT-IR1B4; In the Cos-7 experiment the same construct was expressed in cells; also called IR1B4-flag; flg-IR1B4
Test: GST pull-down on glutathione beads, SDS-PAGE, Phosphor-Imager

B1: GST alone (Glutathione S-transferase) (other, UniProt P08515 1-218, looked up)
chain: MSPILGYWKIKGLVQPTRLLLEYLEEKYEEHLYERDEGDKWRNKKFELGLEFPNLPYYIDGDVKLTQSMAIIRYIADKHNMLGGCPKERAEISMLEGAVLDIRYGVSRIAYSKDFETLKVDFLSKLPEMLKMFEDRLCHKTYLNGDHVTHPDFMLYDALDVVLYMDPMCLDAFPKLVCFKKRIEAIPQIDKYLKSSKYIAWPLQGWQATFGGGDHPPK
notes: Control beads of the pull-down
  binding result: no binding
